Literature values in patent US20250041300A1, “PHARMACEUTICAL COMBINATION COMPRISING ABEMACICLIB AND A PI3K AND/OR A MTOR INHIBITOR FOR THE TREATMENT OF MANTLE CELL LYMPHOMA” (Board of Regents, The University of Texas System, priority 2021, published 2025).

Protein sequences, listed by entry. Tags and fused reporters are not part of them. Lines headed by an entry give the natural chain unless they say otherwise; changes in a name come on top.
UniProt P42338: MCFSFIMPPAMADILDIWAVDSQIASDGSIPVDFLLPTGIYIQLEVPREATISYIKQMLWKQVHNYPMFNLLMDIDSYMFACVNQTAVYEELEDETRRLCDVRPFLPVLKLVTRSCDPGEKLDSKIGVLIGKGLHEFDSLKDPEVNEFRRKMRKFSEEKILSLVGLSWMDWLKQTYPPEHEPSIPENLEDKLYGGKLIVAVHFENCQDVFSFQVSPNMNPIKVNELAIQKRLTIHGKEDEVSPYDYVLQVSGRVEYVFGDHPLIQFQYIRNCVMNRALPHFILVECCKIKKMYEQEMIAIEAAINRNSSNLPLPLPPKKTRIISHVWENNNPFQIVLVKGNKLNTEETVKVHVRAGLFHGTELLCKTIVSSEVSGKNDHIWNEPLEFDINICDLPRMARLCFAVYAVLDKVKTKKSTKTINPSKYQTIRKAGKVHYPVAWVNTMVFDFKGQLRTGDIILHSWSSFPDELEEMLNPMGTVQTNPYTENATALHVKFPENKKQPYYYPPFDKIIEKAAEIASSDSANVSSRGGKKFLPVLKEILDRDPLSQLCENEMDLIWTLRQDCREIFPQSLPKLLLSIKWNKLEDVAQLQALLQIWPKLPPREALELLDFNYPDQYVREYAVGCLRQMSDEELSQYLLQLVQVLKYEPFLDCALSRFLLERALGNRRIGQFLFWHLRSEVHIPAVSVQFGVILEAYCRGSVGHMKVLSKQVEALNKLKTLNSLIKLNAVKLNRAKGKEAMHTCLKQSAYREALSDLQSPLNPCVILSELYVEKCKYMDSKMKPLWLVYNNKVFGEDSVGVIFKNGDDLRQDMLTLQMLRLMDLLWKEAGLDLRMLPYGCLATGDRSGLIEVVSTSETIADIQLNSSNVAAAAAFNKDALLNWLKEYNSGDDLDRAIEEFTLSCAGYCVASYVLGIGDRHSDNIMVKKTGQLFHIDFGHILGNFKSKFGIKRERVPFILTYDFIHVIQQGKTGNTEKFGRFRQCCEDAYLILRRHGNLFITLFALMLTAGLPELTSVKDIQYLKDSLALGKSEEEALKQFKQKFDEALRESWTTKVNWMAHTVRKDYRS
UniProt P42336, whole entry: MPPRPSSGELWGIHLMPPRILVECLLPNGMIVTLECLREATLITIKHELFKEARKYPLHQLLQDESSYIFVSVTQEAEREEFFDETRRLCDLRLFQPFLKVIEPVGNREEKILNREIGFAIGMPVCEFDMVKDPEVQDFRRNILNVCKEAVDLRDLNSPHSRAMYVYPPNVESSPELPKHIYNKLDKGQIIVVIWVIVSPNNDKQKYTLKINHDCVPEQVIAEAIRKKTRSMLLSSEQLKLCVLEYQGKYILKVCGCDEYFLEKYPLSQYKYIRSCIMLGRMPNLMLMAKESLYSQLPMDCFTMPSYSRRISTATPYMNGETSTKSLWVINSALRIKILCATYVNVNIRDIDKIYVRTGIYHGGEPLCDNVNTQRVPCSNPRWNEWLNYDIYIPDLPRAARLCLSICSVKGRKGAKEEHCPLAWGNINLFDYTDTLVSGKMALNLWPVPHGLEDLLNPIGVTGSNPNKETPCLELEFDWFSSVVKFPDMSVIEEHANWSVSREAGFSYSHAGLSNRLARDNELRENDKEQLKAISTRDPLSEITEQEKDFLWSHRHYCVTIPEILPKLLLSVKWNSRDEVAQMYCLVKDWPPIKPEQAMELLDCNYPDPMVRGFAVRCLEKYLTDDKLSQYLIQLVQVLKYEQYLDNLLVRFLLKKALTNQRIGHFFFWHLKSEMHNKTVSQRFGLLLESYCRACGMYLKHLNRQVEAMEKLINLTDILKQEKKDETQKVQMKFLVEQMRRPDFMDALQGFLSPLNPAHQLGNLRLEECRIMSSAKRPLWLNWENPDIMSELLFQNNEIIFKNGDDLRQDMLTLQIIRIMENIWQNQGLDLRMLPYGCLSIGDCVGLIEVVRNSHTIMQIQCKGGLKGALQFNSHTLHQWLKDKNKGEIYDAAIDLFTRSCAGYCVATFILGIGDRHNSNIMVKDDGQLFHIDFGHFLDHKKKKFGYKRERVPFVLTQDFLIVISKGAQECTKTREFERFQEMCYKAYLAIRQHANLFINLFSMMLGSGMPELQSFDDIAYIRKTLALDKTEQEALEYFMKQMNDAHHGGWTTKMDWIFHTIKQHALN
UniProt O00329: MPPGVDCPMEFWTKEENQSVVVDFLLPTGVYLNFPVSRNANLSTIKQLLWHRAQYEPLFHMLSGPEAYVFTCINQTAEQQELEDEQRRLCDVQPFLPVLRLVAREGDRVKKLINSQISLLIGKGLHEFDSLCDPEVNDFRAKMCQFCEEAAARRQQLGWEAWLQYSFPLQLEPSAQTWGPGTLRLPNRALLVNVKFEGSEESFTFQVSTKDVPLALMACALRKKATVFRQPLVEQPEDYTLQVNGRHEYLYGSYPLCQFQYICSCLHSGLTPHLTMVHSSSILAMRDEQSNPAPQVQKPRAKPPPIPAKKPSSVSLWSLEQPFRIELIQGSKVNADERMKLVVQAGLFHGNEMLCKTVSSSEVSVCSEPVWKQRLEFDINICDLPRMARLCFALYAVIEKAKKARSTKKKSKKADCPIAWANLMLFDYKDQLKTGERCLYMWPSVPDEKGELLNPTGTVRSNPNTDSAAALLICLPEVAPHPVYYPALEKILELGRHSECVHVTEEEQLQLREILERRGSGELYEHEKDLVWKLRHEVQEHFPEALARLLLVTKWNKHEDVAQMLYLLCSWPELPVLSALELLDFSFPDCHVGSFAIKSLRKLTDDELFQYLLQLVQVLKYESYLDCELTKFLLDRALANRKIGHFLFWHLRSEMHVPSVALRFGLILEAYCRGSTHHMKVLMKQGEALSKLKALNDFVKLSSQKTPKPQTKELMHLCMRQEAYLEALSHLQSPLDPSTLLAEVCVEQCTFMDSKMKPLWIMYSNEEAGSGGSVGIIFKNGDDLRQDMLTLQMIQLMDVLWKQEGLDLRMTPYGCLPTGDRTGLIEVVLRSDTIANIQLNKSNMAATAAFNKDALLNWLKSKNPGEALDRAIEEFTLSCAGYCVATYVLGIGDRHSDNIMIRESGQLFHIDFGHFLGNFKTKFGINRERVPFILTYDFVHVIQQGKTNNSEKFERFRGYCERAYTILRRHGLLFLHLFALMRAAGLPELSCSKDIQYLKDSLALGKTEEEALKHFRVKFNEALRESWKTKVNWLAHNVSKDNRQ

Columns and labels:
Conditions in all cases: cited from earlier work
[1] = target: PI3Kβ (Homo sapiens, UniProt P42338)
[2] = target: PI3Kα (Homo sapiens, UniProt P42336)
[3] = target: PI3Kδ (Homo sapiens, UniProt O00329)

Structure (SMILES) | IC50 against PI3Kβ (order of magnitude in words) [1] | IC50 against PI3Kα (order of magnitude in words) [2] | IC50 against PI3Kδ (order of magnitude in words) [3]
C[C@@H](Nc1cc(F)cc(F)c1)c1cc(C(=O)N(C)C)cc2c(=O)cc(N3CCOCC3)oc12 [AZD8186, 8-[(1R)-1-(3,5-difluoroanilino)ethyl]-N,N-dimethyl-2-morpholin-4-yl-4-oxochromene-6-carboxamide] | nanomolar | – | –
Cc1nc(-c2cn3c(n2)-c2ccc(-c4cnn(C(C)(C)C(N)=O)c4)cc2OCC3)n(C(C)C)n1 [Taselisib, 2-methyl-2-[4-[2-(5-methyl-2-propan-2-yl-1,2,4-triazol-3-yl)-5,6-dihydroimidazo[1,2-d][1,4]benzoxazepin-9-yl]pyrazol-1-yl]propanamide] | – | nanomolar | nanomolar
